Columns and labels:
[1] = target: Collagenase 3 (Homo sapiens, UniProt P45452); test: In vitro inhibitory activity against matrix metalloprotease-13 (MMP-13)
[2] = target: T1, Interstitial collagenase (Homo sapiens, UniProt P03956); test: In vitro inhibitory activity against matrix metalloprotease-1 (MMP-1)
T1 sequence (P03956 whole entry): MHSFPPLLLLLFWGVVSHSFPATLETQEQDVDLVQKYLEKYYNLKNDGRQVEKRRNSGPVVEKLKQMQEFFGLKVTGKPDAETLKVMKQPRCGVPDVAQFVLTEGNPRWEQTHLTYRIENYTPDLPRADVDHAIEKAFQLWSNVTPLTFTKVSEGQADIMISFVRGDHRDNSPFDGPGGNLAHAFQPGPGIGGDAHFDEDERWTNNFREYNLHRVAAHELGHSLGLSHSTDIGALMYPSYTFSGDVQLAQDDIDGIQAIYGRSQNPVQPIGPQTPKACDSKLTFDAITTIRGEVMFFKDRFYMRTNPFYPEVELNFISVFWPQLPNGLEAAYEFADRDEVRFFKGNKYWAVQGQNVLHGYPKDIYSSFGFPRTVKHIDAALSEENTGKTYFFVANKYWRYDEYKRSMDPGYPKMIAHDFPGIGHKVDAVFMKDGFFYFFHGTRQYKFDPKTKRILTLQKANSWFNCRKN
Procedure, shortened: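 Recombinant human MMP-1 expressed in E. coli BL21(DE3), refolded from inclusion bodies, affinity-purified and trypsin-activated. 10 nM enzyme incubated with 8 µM Mca-Pro-Leu-Gly-Leu-Dpa-Ala-Arg-NH2 in 50 mM Tris-HCl, 10 mM CaCl2, 0.15 M NaCl, 0.05% Brij, 20-30 min, 37 °C, with varying inhibitor. Quenched with 50 mM EDTA; fluorescence read at ex 328/em 393 nm. Triplicates; IC50 from 4-parameter logistic fit.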

Chains of the proteins cited; added tags and fusions are not shown. Lines headed by an entry give the natural chain unless they say otherwise; changes in a name come on top.
UniProt P08254: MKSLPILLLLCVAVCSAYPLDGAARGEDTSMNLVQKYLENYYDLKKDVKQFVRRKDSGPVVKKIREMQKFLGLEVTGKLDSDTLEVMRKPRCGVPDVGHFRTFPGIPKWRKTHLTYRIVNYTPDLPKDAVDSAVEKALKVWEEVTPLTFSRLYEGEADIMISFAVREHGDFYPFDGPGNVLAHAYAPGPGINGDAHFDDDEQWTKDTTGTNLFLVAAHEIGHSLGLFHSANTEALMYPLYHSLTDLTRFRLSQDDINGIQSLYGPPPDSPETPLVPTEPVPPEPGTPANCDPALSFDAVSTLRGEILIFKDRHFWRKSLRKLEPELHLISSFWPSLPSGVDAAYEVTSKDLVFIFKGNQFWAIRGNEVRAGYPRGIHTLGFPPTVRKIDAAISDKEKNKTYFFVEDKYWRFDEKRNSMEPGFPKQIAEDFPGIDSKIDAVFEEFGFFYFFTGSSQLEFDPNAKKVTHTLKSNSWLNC
UniProt P14780: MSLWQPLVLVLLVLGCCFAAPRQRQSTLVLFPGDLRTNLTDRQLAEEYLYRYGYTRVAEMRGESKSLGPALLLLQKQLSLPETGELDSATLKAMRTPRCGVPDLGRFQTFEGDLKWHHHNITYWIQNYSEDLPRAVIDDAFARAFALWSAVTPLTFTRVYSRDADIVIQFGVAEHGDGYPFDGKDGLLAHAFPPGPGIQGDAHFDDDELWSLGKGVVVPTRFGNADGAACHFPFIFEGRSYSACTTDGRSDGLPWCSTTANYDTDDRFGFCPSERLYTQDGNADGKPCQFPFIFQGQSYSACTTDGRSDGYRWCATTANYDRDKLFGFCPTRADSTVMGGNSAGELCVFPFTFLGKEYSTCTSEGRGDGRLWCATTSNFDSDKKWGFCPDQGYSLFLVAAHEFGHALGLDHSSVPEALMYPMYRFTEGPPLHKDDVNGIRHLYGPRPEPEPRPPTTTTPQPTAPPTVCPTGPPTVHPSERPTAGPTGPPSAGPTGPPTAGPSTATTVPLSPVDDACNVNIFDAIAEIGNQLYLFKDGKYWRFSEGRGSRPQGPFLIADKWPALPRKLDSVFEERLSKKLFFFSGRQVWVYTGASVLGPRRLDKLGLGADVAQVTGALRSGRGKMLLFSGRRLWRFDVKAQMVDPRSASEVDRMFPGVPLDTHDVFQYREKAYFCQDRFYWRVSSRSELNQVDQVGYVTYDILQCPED

[3] = target: Stromelysin-1 (Homo sapiens, UniProt P08254); test: In vitro inhibitory activity against matrix metalloprotease-3 (MMP-3)
[4] = target: Matrix metalloproteinase-9 (Homo sapiens, UniProt P14780); test: In vitro inhibitory activity against matrix metalloprotease-9 (MMP-9)

Compound	IC50 [1] [nM]	IC50 [2] [nM]	also measured
CCCCCC(=O)N1CCN(S(=O)(=O)c2ccc(OC)cc2)C(C(=O)NO)C1 (configuration not stated)	1.7	–	–
COc1ccc(S(=O)(=O)N2CCN(C)CC2C(=O)NO)cc1 (configuration not stated)	–	1260	–
CCCN(CC1CC1)C(=O)N1CCN(S(=O)(=O)c2ccc(OC)cc2)C(C(=O)NO)C1 (configuration not stated)	–	493	–
COc1ccc(S(=O)(=O)N2CCN(C(=O)OCc3ccccc3)CC2C(=O)NO)cc1 (configuration not stated)	–	–	IC50 [3]: 18 nM
COc1ccc(S(=O)(=O)N2CCN(C(=O)COc3ccccc3)CC2C(=O)NO)cc1 (configuration not stated)	2.1	–	–
COc1ccc(S(=O)(=O)N2CCN(C(=O)c3ccccc3)CC2C(=O)NO)cc1 (configuration not stated)	3	–	IC50 [4]: 3 nM

— ChEMBL document CHEMBL1133577, “Design and synthesis of piperazine-based matrix metalloproteinase inhibitors” (J Med Chem, 2000)
